Assay [1] deals with T1, human SOCS1 (residues 53-211) in complex with Elongins B and C (human, UniProt O15524 53-211; Q15370 1-118; Q15369 17-112). Kind of assay: ITC; pY1007/pY1008. On the technique in general: In ITC the heat of successive injections is recorded.
Assay [2] has as its target T1, human SOCS1 (residues 53-211) in …. Kind of assay: ITC; IFNαR1 (pY481).
Assay [3] shares this target. Kind of assay: ITC; pY980/pY981.
Assay [4] shares this target. The experiment in a line: ITC; pY1054/pY1055.

Chains of the proteins cited; added tags and fusions are not shown. Residues count along the entry.
UniProt O15524, 53-211, chain 1 of 3: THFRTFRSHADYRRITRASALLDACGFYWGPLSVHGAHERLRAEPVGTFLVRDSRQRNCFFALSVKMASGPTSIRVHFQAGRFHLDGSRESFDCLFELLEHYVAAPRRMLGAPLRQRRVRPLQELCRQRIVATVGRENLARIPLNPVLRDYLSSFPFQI

From paper PMC5908791 (2018) come the findings set out here.

By Kd is commonly meant the constant that tells how readily two partners part at equilibrium. Low values mean tighter binding, high ones weaker binding.

The molecule VLPQDKEYYKVKEPGE (doubly-phosphorylated (phosphotyrosines)) [JAK2 activation loop phosphopeptide] displayed a Kd in assay [1] of 615 nM.
Consider RCINYVFFPSL (phosphotyrosine) [one phosphopeptide from the IFN-α receptor (site within the Box1/2 motif)], for which binding in assay [2] was characterised by a dissociation constant (Kd) of 686 nM.
In the case of LLPLDKDYYVVREPGQ (doubly-phosphorylated (phosphotyrosines)) [JAK3 activation loop phosphopeptide], the dissociation constant Kd in assay [3] was found to be 210 nM.
In assay [4], VPEGHEYYRVREDGD (doubly-phosphorylated (phosphotyrosines)) [TYK2 activation loop phosphopeptide] showed a Kd of 346 nM.
